Target: SGLT2 (Homo sapiens (Human), UniProt P31639)
Assay: In vitro SGLT2 inhibitory activity: 1-NBDG uptake by CHO-SGLT2 cells
Type: cell-based
Conditions: read-out: IC50 inhibiting SGLT2

Amino acid sequences for entries named in this document (tags omitted).
UniProt P31639, whole entry: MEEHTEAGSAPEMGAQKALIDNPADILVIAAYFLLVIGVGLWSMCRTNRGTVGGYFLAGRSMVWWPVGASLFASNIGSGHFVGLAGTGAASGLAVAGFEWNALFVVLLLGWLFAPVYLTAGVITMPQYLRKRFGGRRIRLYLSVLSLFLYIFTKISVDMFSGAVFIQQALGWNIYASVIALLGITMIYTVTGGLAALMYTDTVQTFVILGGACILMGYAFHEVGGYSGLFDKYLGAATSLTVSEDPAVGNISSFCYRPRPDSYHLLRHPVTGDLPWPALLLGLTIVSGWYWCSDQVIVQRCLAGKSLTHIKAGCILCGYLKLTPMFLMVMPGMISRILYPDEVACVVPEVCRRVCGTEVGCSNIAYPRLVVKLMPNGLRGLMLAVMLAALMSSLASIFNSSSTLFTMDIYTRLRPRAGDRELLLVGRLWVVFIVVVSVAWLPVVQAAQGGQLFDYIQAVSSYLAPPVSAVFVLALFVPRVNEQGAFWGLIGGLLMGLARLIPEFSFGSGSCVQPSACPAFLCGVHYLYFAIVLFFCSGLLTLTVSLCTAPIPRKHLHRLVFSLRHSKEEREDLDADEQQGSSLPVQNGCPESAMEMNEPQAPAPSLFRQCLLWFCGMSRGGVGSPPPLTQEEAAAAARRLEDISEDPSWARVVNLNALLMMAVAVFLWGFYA

Compound | IC50 [nM]
CO[C@H]1O[C@@H](c2ccc(Cl)c(Cc3ccc4c(c3)CC4)c2)[C@H](O)[C@@H](O)[C@@H]1O | 1.36
CS[C@H]1O[C@@H](c2ccc(Cl)c(Cc3ccc4c(c3)CCO4)c2)[C@H](O)[C@@H](O)[C@@H]1O | 3.52

From US20250129055A1, “GLUCOSIDE DERIVATIVE, AND PREPARATION METHOD THEREFOR AND APPLICATION THEREOF” (BEIJING INCREASE INNOVATIVE DRUG CO., LTD., priority 2020, published 2025)
